# Measured values as given in patent US9453051B2, “Cyclosporin derivatives” (priority 2011, dated 2016).
# Tested on: NFAT
# Assay: Cellular NFAT-reporter-gene assay (GloResponse NFAT-RE-luc2P HEK293)
# Assay type: cell-based
# Settings: read-out: NFAT-reporter-gene assay IC50; HEK293 reporter cells stimulated with 5 nM PMA and 2 μM ionomycin, 16 h
structure (smiles),measurement,value
CC[C@@H]1NC(=O)[C@H]([C@H](O)[C@H](C)Cc2nc3cc(C(=O)OC)ccc3[nH]2)N(C)C(=O)[C@H](C(C)C)N(C)C(=O)[C@H](CC(C)C)N(C)C(=O)[C@H](CC(C)C)N(C)C(=O)[C@@H](C)NC(=O)[C@H](C)NC(=O)[C@H](CC(C)C)N(C)C(=O)[C@H](C(C)C)NC(=O)[C@H](CC(C)C)N(C)C(=O)CN(C)C1=O,IC50,> 10 µM
